Data as given in US20240197719A1 (priority 2018, published 2024).

Conditions: human, in vivo

## C=C1CC[C@@]2(O)[C@H]3Cc4ccc(O)c5c4[C@@]2(CCN3CC2CC2)[C@H]1O5 [Nalmefene, 17-cyclopropylmethyl-4,5α-epoxy-6-methylenemorphinan-3,14-diol]
  AUC: did not alter
  half-life: nor does it change
im
  dose-normalized Cmax: increased dramatically
